In the experiment the target is T1, PERK (Homo sapiens, UniProt Q9NZJ5).
T1 construct: GST-PERK (536-1116) cytoplasmic domain was purchased from Invitrogen; purchased Invitrogen PV5106
T1 sequence (Q9NZJ5 536-1116): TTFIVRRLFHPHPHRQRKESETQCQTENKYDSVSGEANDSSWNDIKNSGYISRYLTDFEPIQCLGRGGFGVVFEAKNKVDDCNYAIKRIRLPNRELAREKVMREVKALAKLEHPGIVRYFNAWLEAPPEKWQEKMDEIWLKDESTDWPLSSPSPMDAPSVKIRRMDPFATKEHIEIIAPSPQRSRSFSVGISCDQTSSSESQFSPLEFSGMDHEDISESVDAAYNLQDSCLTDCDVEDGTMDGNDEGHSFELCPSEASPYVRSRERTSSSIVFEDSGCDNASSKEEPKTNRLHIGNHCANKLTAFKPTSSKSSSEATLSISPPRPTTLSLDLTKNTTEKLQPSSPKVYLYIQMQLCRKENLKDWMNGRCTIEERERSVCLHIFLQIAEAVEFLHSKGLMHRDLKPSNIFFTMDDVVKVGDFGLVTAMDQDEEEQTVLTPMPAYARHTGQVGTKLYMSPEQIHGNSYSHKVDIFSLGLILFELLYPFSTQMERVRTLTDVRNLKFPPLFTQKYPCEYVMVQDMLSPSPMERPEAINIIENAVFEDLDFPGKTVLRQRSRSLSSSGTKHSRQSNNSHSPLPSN
The experiment is described as follows: PKR-like Endoplasmic Reticulum Kinase (PERK) Assay (HTRF Format). It is filed as biochemical. The settings on record: average, in at least one set of experimental runs; read-out: average pIC50 value against PERK (converted). On the procedure:
PKR-like Endoplasmic Reticulum Kinase (PERK) Assay (HTRF Format)
Source of substrate: elF2α: 6-His-Full-length human elF2α is purified from baculovirus expression in Sf9 insect cells. The elF2 protein is buffer exchanged by dialysis into PBS, chemically modified by NHS-LC-Biotin and then buffer exchanged by dialysis into 50 mm TRIS pH 7.2/250 mM NaCl/5 mM DTT. Protein is aliquoted and stored at −80° C.
Assays were performed by adding GST-PERK solution to assay plates containing compounds and pre-incubated for 30 minutes at room temperature. The reaction is initiated by the addition of ATP and EIF2α substrate solution. Quench solution is added following a one hour incubation at room temperature. The plates are covered for 2 hours at room temperature prior to determination of signal. The resulting signal is quantified on a Viewlux Reader (PerkinElmer). The APC Signal is normalized to the Europium signal by transforming the data through an APC/Eu calculation.
Compounds under analysis were dissolved in DMSO to 1.0 mM and serially diluted 1 to 3 with DMSO through eleven dilutions. […]
The data for concentration response curves were plotted as % Inhibition calculated with the data reduction formula 100*(1−(U1−C2)/(C1−C2)) versus concentration of compound where U is the unknown value, C1 is the average control value obtained for 1% DMSO, and C2 is the average control value obtained for 0.1 M EDTA. […]
A general note: Time-resolved FRET reads energy transfer from a long-lived donor to a nearby acceptor.

Consider `Nc1ncc(-c2cccnc2)c2scc(-c3ccc4c(c3)CCN4C(=O)Cc3ccccc3)c12` [Example 7, 3-[1-(phenylacetyl)-2,3-dihydro-1H-indol-5-yl]-7-(3-pyridinyl)thieno[3,2-c]pyridin-4-amine], for which the IC50 is 3.16 nM. As to `Cn1cc(-c2ccc3c(c2)CCN3C(=O)Cc2cccc(C(F)(F)F)c2)c2c(N)ncnc21` [Example 44, 7-methyl-5-(1-{[3-(trifluoromethyl)phenyl]acetyl}-2,3-dihydro-1H-indol-5-yl)-7H-pyrrolo[2,3-d]pyrimidin-4-amine], the IC50 was at most 1 nM.

For the origin of these results see patent US20120077828A1, “CHEMICAL COMPOUNDS” (priority 2010, published 2012).
